Molecular target: Cholinesterases; ACHE & BCHE (Homo sapiens) (UniProt P06276+P22303)
Assay: Selectivity ratio of IC50 for human plasmatic BChE to IC50 for human recombinant AChE

Chains of the proteins cited; added tags and fusions are not shown. Lines headed by an entry give the natural chain unless they say otherwise; changes in a name come on top.
UniProt P06276, whole entry, looked up: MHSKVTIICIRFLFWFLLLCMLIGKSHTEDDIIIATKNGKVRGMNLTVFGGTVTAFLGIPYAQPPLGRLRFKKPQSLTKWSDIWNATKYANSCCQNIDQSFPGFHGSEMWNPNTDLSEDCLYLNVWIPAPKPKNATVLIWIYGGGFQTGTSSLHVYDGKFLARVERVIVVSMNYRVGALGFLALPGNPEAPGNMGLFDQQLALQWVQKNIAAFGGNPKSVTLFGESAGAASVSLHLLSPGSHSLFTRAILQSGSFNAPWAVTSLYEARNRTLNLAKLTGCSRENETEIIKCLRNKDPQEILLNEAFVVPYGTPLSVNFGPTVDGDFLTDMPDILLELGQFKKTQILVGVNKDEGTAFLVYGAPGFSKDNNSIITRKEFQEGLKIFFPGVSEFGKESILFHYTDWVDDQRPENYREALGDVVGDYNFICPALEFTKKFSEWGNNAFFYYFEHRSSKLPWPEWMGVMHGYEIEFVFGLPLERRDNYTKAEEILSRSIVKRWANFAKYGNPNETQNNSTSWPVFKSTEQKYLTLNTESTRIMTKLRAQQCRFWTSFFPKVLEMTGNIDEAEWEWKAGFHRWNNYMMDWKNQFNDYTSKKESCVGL
UniProt P22303: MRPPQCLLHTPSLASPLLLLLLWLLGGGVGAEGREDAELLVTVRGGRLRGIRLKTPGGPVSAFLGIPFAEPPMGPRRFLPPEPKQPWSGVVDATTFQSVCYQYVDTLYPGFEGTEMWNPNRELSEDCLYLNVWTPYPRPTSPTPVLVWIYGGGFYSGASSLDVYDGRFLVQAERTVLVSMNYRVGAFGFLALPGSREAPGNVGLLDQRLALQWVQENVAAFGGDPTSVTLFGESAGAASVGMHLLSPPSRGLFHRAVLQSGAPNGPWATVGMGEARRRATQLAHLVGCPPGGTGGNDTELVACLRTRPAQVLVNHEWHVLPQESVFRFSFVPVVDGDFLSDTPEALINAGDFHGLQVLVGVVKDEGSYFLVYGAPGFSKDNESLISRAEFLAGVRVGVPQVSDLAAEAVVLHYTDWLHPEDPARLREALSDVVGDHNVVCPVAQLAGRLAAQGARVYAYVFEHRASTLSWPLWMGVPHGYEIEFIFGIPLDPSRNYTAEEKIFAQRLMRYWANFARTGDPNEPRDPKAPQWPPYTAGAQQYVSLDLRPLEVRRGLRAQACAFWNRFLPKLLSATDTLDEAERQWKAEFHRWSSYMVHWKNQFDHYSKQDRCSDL

Compound | Ratio IC50
c1ccc2c[n+](CCCCCCCC[n+]3ccc4ccccc4c3)ccc2c1 | 80
C=CC[N+](C)(C)c1ccc(CCC(=O)CCc2ccc([N+](C)(C)CC=C)cc2)cc1 | 11800
CCN(CC)C(C)CN1c2ccccc2Sc2ccccc21 (stereo not drawn) | 0.002
